Patent US9067935B2 (Janssen Pharmaceutica, NV, priority 2010, dated 2015)

Sequences of proteins named here, by UniProt entry; tags and fusion partners are left off. Residues count along the entry.
UniProt Q1A7N1, 1-1104: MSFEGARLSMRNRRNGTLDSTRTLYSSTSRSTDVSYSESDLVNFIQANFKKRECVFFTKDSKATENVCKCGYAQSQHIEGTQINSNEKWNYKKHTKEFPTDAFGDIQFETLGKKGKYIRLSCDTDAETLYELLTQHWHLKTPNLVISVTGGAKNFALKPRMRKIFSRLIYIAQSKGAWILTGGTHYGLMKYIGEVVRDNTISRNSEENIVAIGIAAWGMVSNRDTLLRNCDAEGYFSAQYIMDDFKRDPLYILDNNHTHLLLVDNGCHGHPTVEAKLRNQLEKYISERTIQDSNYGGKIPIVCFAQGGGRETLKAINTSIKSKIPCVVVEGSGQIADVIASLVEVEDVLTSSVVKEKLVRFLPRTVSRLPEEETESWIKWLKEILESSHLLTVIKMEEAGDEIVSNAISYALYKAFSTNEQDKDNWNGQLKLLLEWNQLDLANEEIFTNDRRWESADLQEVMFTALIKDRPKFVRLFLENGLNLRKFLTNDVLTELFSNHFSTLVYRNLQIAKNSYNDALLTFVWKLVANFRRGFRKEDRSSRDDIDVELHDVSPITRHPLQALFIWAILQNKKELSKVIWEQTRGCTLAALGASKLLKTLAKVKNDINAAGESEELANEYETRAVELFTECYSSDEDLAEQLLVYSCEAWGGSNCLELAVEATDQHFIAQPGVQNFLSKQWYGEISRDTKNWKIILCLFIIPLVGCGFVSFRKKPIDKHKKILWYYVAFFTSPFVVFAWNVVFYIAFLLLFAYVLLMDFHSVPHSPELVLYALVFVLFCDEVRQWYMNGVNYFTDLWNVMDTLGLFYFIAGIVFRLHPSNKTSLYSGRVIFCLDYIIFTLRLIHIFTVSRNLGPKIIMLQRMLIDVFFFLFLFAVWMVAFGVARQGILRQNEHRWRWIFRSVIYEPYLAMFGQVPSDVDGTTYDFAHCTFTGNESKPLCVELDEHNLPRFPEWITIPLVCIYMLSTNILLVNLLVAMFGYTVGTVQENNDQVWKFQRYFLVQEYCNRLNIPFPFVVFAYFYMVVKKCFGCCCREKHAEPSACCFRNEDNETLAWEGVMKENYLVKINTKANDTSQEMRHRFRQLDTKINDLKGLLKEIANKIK

biological target: canine TRPM8 (Canis lupus familiaris, UniProt Q1A7N1); test: In Vitro Canine TRPM8 Functional Assay (intracellular Ca2+ fluorescence, icilin challenge); format: cell-based; settings: HEK293 cells stably expressing canine TRPM8; icilin at ~80% maximal response
Protocol: The functional activity of compounds of the formula (I) was determined by measuring changes in intracellular calcium concentration using a Ca^2+-sensitive fluorescent dye. The changes in fluorescent signal were monitored by a fluorescence plate reader, either a FLIPR™ (Molecular Devices) or FDSS (Hamamatsu).
At 24 hrs prior to assay, HEK293 cells stably expressing canine TRPM8 were seeded in culture medium in black wall, clear-base poly-D-lysine coated 384-well plates (BD Biosciences, NJ, USA) and grown overnight in 5% CO2 at 37° C. On assay day, growth media was removed and cells were loaded with Calcium 3 Dye (Molecular Devices) for 35 min at 37° C., under 5% CO2 and then for 25 min at room temperature and atmosphere. Subsequently, cells were tested for agonist-induced increases in intracellular Ca^2+ levels using FLIPR™ or FDSS. Cells were challenged with a compound of the Formula (I) (at varying concentrations) and intracellular Ca^2+ was measured for 5 min prior to the addition of icilin to all wells to achieve a final concentration that produces approximately an 80% maximal response. EC50 or IC50 values for compounds of the present invention were determined from eight-point dose-response studies. Curves were generated using the average of quadruplicate wells for each data point.

| IC50 | SMILES |
| --- | --- |
| 74.3 nM | O=S(=O)(c1ccccc1)N(Cc1ccccc1)c1nc2ccc(Cl)cn2c1Cl [Compound 17] |
| 37.2 nM | O=S(=O)(c1ccccc1)N(Cc1cccc(C(F)(F)F)c1)c1nc2ccccn2c1C1CC1 [Compound 73] |
| 77.4 nM | CCc1c(N(CCC(F)(F)F)S(=O)(=O)c2ccccc2)nc2c(C(F)(F)F)cccn12 [Compound 66] |
